Here are results for one molecule from patent US5196547A, “Meso-azacyclic amides of imidazopyridine carboxylic acids and analogs thereof” (G. D. Searle & Co., priority 1992, dated 1993).

Protein sequences, listed by entry. Tags and fused reporters are not part of them. Residues count along the entry.
UniProt P35563, 24-483: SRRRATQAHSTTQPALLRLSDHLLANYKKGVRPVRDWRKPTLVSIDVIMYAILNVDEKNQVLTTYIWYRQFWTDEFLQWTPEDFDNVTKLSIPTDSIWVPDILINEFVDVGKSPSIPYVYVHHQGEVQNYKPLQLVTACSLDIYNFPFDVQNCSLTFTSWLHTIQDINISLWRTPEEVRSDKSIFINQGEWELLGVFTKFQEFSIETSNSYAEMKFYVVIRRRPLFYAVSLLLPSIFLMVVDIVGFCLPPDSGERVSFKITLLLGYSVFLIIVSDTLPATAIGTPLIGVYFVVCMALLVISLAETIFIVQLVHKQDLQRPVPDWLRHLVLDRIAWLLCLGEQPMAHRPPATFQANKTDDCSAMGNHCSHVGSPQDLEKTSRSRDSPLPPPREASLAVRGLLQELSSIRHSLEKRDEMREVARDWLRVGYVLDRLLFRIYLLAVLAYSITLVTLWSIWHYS

The experiment addresses T1, 5-HT3 receptor (Rattus norvegicus, UniProt P35563).
T1 construct: Brain cortices are obtained from male rats and a membrane fraction prepared by standard techniques; from tissue; host or cells: male rat brain cortex, membrane fraction
Description: Serotonin (5-HT3) radioligand receptor binding assay, [3H]-GR65630. On the procedure: 5-HT3 antagonism can be determined by the radioligand receptor binding assay as described herein and in the in vivo Bezold-Jarisch reflex procedure.
GR65630 binds to the 5-HT3 receptor. Brain cortices are obtained from male rats and a membrane fraction prepared by standard techniques. 0.04 mg of membrane prep is incubated with 0.2 nM [^3 H]-GR656630 for 60 minutes at 22° C. […] Membranes are filtered and washed 3 times and the filters are counted to determine [3H]-GR65630 specifically bound.*
*Literature References: Kilpatrick GJ, Jones BJ and Tyers MG. Identification and distribution of 5-HT3 receptors in rat brain using radioligand binding. Nature, 330 : 746-748, 1987.

For the molecule `NCCc1c[nH]c2ccc(O)cc12` [Example 5-HT, Serotonin], the IC50 (commonly the concentration at which inhibition is half-maximal) was found to be 122 nM and the Ki (as a rule, the equilibrium dissociation constant of an inhibitor or competing ligand from its target) worked out at 390 nM.
